Results reported in ChEMBL document CHEMBL1125860, “Syntheses of tolrestat analogues containing additional substituents in the ring and their evaluation as aldose reductase inhibitors. Identification of potent, orally active 2-fluoro derivatives” (J Med Chem, 1991).

Target: Aldo-keto reductase family 1 member B1 (Bos taurus, UniProt P16116)
Experiment: inhibition of aldose reductase activity was measured on partially purified bovine lens preparations incubated in presence of 50 mM glucose.

COc1ccc2c(C(=S)N(C)CC(=O)O)cccc2c1C(F)(F)F [TOLRESTAT]
IC50: 34 nM
